Reference: patent publication US20230038373A1, “STABILE CONJUGATE” (Glykos Biomedical OY, priority 2019, published 2023)

Columns and labels:
[1] = tested on: immature dendritic cells (iDCs) with SK-BR-3 cells; test: Dendritic cell activation assay (iDC / SK-BR-3 co-culture, fractalkine secretion); type: cell-based, human; details: 5 nM test compound
Source text: Monocytes were isolated from human peripheral blood (buffy coat) from healthy adult donors (Finnish Red Cross Blood Service) by using magnetic-activated microbead based cell sorting for CD14 positive cells (Miltenyi Biotec). Monocytes were differentiated to immature dendritic cells (iDCs) by using Mo-DC Differentiation Medium (Miltenyi Biotec) according the manufacturer's instructions. On day 6, to analyze cell surface expression of maturation markers, the iDCs were labeled with specific monoclonal antibodies for CD209 (R&D Systems) and CD14 (eBioscience). Nonspecific antibody binding was assessed using appropriate isotype controls. The iDCs were used for co-culture experiment on day 7.
SK-BR-3 cells (ATCC) were cultured in DMEM (Gibco) containing GlutaMAX and supplemented with 10% heat-inactivated fetal bovine serum (FBS, Gibco). SK-BR-3 cells were plated in 96-well plate (5000 c/well) in the presence or absence of […] kifunensine (Carbosynth Limited) and cultured for 5 days. Before start of the co-culture, SK-BR-3 cells were washed twice with RPMI 1640 medium (Gibco). Differentiated iDCs were collected and 0.11×10^6 cells/well were added together with the test compounds to SK-BR-3 cells and cells were incubated for 24 h at +37° C. in 5% CO2. The experiment medium was RPMI 1640 medium (Gibco) containing 10 mM Hepes and 2 mM glutamine and supplemented with 10% FBS (Gibco). […]

mannosidase I = test: N-glycan profiling of SK-BR-3 cells after inhibitor/ADC treatment (mannosidase I inhibition); type: cell-based; details: 1 pM, 3 days

**Q.** What does the source list for “trastuzumab: human HER2-specific antibody (Herceptin, Roche)”?
**A.** Fractalkine ([1]; SK-BR-3 + iDCs 24 h co-culture, without kifunensine pretreatment): 50.64 pg/mL; Fractalkine ([1]; iDCs without SK-BR-3 cells): 1.98 pg/mL; N-glycan profile (FIG. 6A = profile of control cells, no treatment) (mannosidase I): as shown in FIG. 6A
